# Values quoted from earlier work in patent US20220125844A1 (priority 2020, published 2022).
# Tested on: primary human natural killer (NK) cells
# Details: in vitro, cells preincubated with opioid; cited from earlier work
smiles,measurement,value
CN(C(=O)Cc1ccc(Cl)c(Cl)c1)[C@@H]1CCCC[C@H]1N1CCCC1,primary human NK cell cytotoxicity after preincubation with opioid,reduced
